{"sequences": {"note": "Protein sequences, listed by entry. Tags and fused reporters are not part of them.", "UniProt P33535, whole entry": "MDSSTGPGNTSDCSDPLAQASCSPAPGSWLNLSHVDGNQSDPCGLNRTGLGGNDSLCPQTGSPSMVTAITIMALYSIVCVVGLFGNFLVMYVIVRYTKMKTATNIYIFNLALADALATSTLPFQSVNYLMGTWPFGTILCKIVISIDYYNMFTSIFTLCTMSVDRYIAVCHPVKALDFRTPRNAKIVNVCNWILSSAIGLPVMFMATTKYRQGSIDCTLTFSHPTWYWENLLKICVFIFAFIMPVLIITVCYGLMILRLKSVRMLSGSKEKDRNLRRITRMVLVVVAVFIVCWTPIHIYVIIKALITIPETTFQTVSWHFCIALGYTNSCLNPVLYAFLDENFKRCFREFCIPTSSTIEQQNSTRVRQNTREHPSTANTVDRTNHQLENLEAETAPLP"}, "source": "paper PMC3896271", "about": "(Beilstein Journal of Organic Chemistry, 2013)", "target": "T1, rat μ opioid receptor (Rattus norvegicus, UniProt P33535)", "T1 construct": "expressed in transfected cells; host or cells: CHO cells, stably transfected; membranes", "format": "binding", "data": [{"substance": "DAMGO [reference compound]", "values": [{"measurement": "displacement of [3H]diprenorphine", "value": "> 90", "unit": "%"}]}]}
